Source: publication PMC10948613, “Quantitative analysis of MBW complex formation in the context of trichome patterning” (Frontiers in Plant Science, 2024)

Target: T1, ProtA-tagged GLABRA3 (GL3) (Arabidopsis thaliana, UniProt Q9FN69 1-637)
T1 construct: GLABRA3 (GL3), basic helix-loop-helix (bHLH)-like transcription factor, Arabidopsis thaliana; Backbone pTREXdest30; The results write 'GL3-ProtA', but the methods say that the tag is fused to the N-terminus; also called GL3-ProtA; ProtA-tagged GL3; source: HEK293TM cells, transiently expressed, in lysate; not shown: Staphylococcus aureus protein A, N-terminal, kept
T1 sequence (looked up): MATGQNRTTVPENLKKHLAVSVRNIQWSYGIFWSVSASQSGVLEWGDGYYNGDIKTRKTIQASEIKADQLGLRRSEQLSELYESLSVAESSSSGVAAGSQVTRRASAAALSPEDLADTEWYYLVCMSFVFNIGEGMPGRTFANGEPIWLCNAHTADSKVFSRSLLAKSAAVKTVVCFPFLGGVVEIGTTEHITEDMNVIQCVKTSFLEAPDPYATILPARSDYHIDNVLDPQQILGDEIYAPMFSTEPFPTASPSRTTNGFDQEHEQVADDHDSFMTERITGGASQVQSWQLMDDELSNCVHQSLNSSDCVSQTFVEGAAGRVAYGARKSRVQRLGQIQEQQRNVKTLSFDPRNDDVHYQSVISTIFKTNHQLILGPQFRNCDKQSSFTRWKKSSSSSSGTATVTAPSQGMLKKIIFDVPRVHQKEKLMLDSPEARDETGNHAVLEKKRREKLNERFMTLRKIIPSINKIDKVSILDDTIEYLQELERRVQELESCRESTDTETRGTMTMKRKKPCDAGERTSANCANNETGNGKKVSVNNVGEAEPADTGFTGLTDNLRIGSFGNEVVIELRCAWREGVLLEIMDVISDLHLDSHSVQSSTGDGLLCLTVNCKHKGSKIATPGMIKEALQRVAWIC
Assay: pull-down; LUMIER pull-down: raw HEK293TM extracts of ProtA-tagged GL3 and a Renilla-tagged protein mixed, dilution series of the ratio, Renilla luminescence on the beads; ratios from HA Western blots; single-site reversible binding model; KD dimensionless and relative to the total GL3 concentration
Settings: partners not purified

B1: Renilla-tagged GLABRA3 (GL3) (natural protein, Arabidopsis thaliana, UniProt Q9FN69 1-637, looked up)
chain: T1 sequence (looked up)
notes: GLABRA3 (GL3), basic helix-loop-helix (bHLH)-like transcription factor, Arabidopsis thaliana; Backbone pTREXdest30; also called GL3-Renilla; source: HEK293TM cells, transiently expressed, in lysate; not shown: Renilla reniformis luciferase (Rluc), N-terminal, kept
For B1, the “relative KD (KD divided by total GL3)” value was 0.5 dimensionless, relative to the total GL3 concentration.
